Experiment [1] concerns the target purified recombinant human PDE5 (Homo sapiens, UniProt O76074). The experiment in a line: In vitro PDE5 inhibition assay (GMP production from cGMP, LC-MS). It is filed as biochemical. The following applies: for Field improved potency: fold change in IC50 compared to icariin.
The test system of experiment [2] is H187 cells. The experiment in a line: Cytotoxicity measured by resazurin, H187. The experiment is classed as cell-based, human. Conditions: read-out: IC50 Values (μM), H187, 0-10 μM. (Alamar Blue is a resazurin reagent that responds to reducing activity.)
The subject of experiment [3] is SY5Y cells. The experiment in a line: Cytotoxicity measured by resazurin, SY5Y. The following applies: read-out: IC50 Values (μM), SY5Y, 0-10 μM.

The values that follow come from patent US11377466B2, “Analogs of the natural product icariin” (Whitehead Institute for Biomedical Research, priority 2018, dated 2022).

Values joined by “and” are separate entries in the source; they are usually repeats but may differ in a detail not shown here. Identical values can stand only once. Where only a bound is given, the exact number is not on record here.

In the case of `COc1ccc(-c2oc3c(CC=C(C)C)c(O[C@@H]4O[C@H](CO)[C@@H](O)[C@H](O)[C@H]4O)cc(O)c3c(=O)c2OCCCO)cc1`, the “fold decrease in potency compared to the unglycosylated 7” value in experiment [1] (7-O-glucose combined with 3-O-hydroxypropyl) came to 6. The Field improved potency in experiment [1] is 8. For the same compound, the IC50 in experiment [1] (purified recombinant human PDE5, cGMP at 1/10 of Km) is 800 nM; in experiment [2] it was over 10 µM; in experiment [3] it was 5.02 µM.

Turning to `COc1ccc(-c2oc3c(CC=C(C)C)c(O)cc(O)c3c(=O)c2OCCCO)cc1`, the Ki in experiment [1] (enzyme kinetics, purified recombinant human PDE5) came out at 38 nM. Also, the Field improved potency in experiment [1] was 42 and 43.

By IC50 is commonly meant the concentration needed to halve the response being measured. The term Ki denotes a dissociation constant, usually derived from enzyme kinetics or from competition with a known ligand.
